# Read-outs that look alike come from different tables or passages of the source.
# Protein sequences, listed by entry. Tags and fused reporters are not part of them.
# UniProt P35414, whole entry: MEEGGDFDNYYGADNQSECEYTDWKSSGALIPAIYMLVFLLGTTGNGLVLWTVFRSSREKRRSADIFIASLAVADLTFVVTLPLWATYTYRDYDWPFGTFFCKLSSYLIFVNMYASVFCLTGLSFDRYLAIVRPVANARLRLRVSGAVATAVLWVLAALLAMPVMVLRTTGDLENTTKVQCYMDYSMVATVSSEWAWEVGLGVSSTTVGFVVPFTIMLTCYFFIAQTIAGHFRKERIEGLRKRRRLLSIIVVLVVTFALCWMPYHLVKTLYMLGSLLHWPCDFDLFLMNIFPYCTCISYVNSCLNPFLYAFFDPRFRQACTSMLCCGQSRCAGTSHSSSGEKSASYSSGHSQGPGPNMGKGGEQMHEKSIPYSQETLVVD
# Biological target: APJ receptor (Homo sapiens, UniProt P35414)
# Assay: Intracellular cAMP accumulation assay (APJ hcAMP, HTRF)
# Format: cell-based
# Procedure: Intracellular cAMP Accumulation Assay
# HEK293 cells stably expressing human APJ receptor were used to assess the activity of compounds. Cultured cells were detached and resuspended in the cAMP Homogeneous Time-Resolved Fluorescence (HTRF) assay buffer (Cisbio cat; #62AM4PEJ). The assay was performed in 384-well assay plates (Perkin-Elmer; cat #6008289) according to assay protocol provided by the manufacturer. Serial dilutions of a compound together with assay buffer containing […] IBMX and 2 μM forskolin were added to each well containing 5,000 cells and incubated for 30 minutes at room temperature. Subsequently, cAMP D2 reagent was added in the lysis buffer followed by the EuK antibody (Cisbio; cat #62AM4PEJ) and incubated for 60 min. The fluorescence emission ratio was measured using fluorometer. The intracellular cAMP concentrations (compound-stimulated inhibition of forskolin-mediated cAMP production) were calculated by extrapolation from a standard curve using known cAMP concentrations. The EC50 values were obtained by fitting the data to a sigmoidal concentration-response curve with variable slope. The maximal achievable inhibition of forskolin-induced cAMP levels (Ymax) for each compound was expressed as relative percentage of inhibition attained using pyroglutamated apelin-13 ((Pyrl)apelin-13) peptide, which was set to 100%.
# The exemplified Examples disclosed below were tested in the APJ in vitro assays described above and were found having human APJ cyclic AMP (hcAMP) activity. Table 1 lists hcAMP EC50 values measured for the following examples. Ranges are as followε: A=0.0-10 nM; B=10.01-100 nM; C=101-500 nM.
# [1] = read-out: APJ cAMP Human EC50, human APJ, cAMP, potency range class
# [2] = read-out: APJ hcAMP EC50, Table 1, HEK293 cells stably expressing human APJ receptor, inhibition of forskolin-mediated cAMP production
Compound,EC50 [1] [µM],EC50 [2] [µM]
CCCC(NC(=O)c1ccc(-c2c(Cl)cccc2-c2nc3ccccc3[nH]2)c(C(=O)O)c1)c1ccc(Cl)cc1 (stereo not drawn),< 0.01,< 0.01
CCCC(NC(=O)c1ccc(-c2c(Cl)cccc2-c2nc3ccccc3[nH]2)c(C(=O)O)c1)c1ccncc1 (stereo not drawn),< 0.01,< 0.01
"CCCC(NC(=O)c1ccc(-c2c(Cl)cccc2-c2nc3ccccc3[nH]2)c(C(=O)O)c1)c1ccc(F)cc1 (single isomer, unassigned) [Example 228]",< 0.01,< 0.01

# Reference: patent publication US11498903B2 (BRISTOL-MYERS SQUIBB COMPANY, priority 2017, dated 2022)
